Data on four compounds can be found in ChEMBL document CHEMBL5131383, “Structure-based design, synthesis, and evaluation of inhibitors with high selectivity for PARP-1 over PARP-2” (Eur J Med Chem, 2022).

The species named for this assay is Homo sapiens. Put plainly: Selectivity index, ratio of IC50 for human PARP2 to IC50 for human PARP1.
For the compound `NC1CCN(Cc2cccc(-c3[nH]c4cc(F)cc5c4c3CCNC5=O)c2)CC1`, the Ratio IC50 was determined as 64.5.

For the compound `NC1CCN(Cc2ccc(-c3[nH]c4cc(F)cc5c4c3CCNC5=O)cc2)CC1`, the Ratio IC50 is 10.3.

Regarding `CCN(CC)Cc1ccc(-c2[nH]c3cc(F)cc4c3c2CCNC4=O)cc1`, the Ratio IC50 was 18.4.

Take `C[C@@H]1CN(Cc2ccc(-c3[nH]c4cc(F)cc5c4c3CCNC5=O)cc2)CCN1`: the Ratio IC50 was determined as 4.4.
